Assay outcomes (PubChem)
Xi reactivation = reactivates the inactive X chromosome in mouse fibroblasts; XiGFP mouse fibroblasts, % GFP-positive cells imaging, 3 d; cells co-treated with 5-aza-dC sensitizer; scaled so ellipticine positive control = 100%; activation, % at 7.58 µM; 0.055% of 360,000 active;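 active = mean normalized replicate activation at least 10% and every replicate at or above 10%; inconclusive = only one of the two criteria met; inactive = mean below 10% and not all replicates reach 10%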;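 note: 0% = median of on-plate neutral control wells and 100% = ellipticine 6 µM median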
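assay system = SV40-immortalized XiGFP fibroblast cells, line 68-5-11 | buffer or medium = DMEM plus 5-aza-dC sensitizer | doses = single-point pinned compound dosing | times = 3-day compound exposure, then 15 min fixation at room temperature | benchmarks = positive control ellipticine, 6 µM final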
RAD52 inh = blocks human RAD52 DNA annealing | P43351 | recombinant RAD52 DNA annealing, FRET fluorescence | inhibition, % at 18.7 µM | 0.46% of 360,000 active | AID 651710;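 active = every replicate showing at least 50% inhibition; inconclusive = mean inhibition at least 50% but not in every replicate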
UUG fidelity = modulators of yeast start codon fidelity, primary screen, whole organism, S. cerevisiae, single point, plate reader. S. cerevisiae UUG-firefly luciferase reporter, luminescence/redox ratio. activity score, % at 18.7 µM. actives 0.13% (n = 350,000);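 active = replicate mean at a twofold rise or more, about +100% in these data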;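 note: firefly luciferase made from a UUG start codon reports start codon fidelity; reporter light over untreated wells divided by growth signal over untreated wells; some hits fall short of that in this replicate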
E-sel inducer = induces E-selectin expression in human endothelial cells. HUVEC E-selectin immunofluorescence imaging; normalized: neutral wells 0, TNF-alpha wells 100. activation, % at 7.58 µM. 0.37% of 260,000 active. AID 686992;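 active = mean E-selectin-positive cell signal at least 10% of the positive control, reached in at least 60% of replicates, without over 20% cell loss; inconclusive = no rule given, readout overlaps actives, possibly toxicity-flagged; inactive = the rest, including those meeting only one limit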
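Assay system: HUVEC, human umbilical vein endothelial cells / Amount: 3,000 HUVEC/well / Controls: TNF-alpha positive control, DMSO neutral control / Compound dosing: single concentration / Medium: EGM-2 over gelatin coat / Evaluation: percent E-selectin-positive cells / Signal: immunofluorescence imaging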
RAD54 branch = blocks human RAD54 Holliday junction branch migration. Q92698. FAM/BHQ fluorescence. inhibition, % at 10.4 µM. 0.14% of 360,000 active. AID 602329;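 active = mean normalized replicate activity at least 40 and at least half of replicates scoring 40 or more; inconclusive = only one of the two criteria met; inactive = mean below 40 and under half of replicates reaching 40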;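 note: 0% = median of neutral control wells and 100% = median of positive control wells; inhibitors cause a drop in the FAM fluorescence signal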
DNA binding = counter-screen for Rad54 inhibitors: DNA binding compounds. Acridine orange-DNA displacement, fluorescence polarization, 20 min. AC50, µM (top dose mostly 35 µM), for inactives: top-dose activity change, negative = DNA binding. shares compounds with RAD54 branch. 8% of 460 active;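 active = signal drop giving an AC50 within twice the top valid tested concentration of each sample, actives reach about 35 µM in these data; inactive = activity opposite to expected, plus the rest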;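 note: polarization loss reports compound binding to salmon sperm DNA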
RAD52 DNA ctr = DNA binding artifact in RAD52 counter-screen; 8% of 1,000 active; Salmon sperm DNA/acridine orange FP displacement; shares compounds with RAD52 inh; AC50, µM;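 active = fitted half-maximal concentration for signal loss at or below twice the highest dose tested, in every separate run, actives reach about 64 µM in these data; inconclusive = runs disagree, or flat partial signal loss, or poor fit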
The depositor's hits bear a star; ! = not active in a repeat. The list is not random: actives were taken first. Their share in the collection is about 0.73%.

CCCCN(CC)CCNC(=O)c1cc2c(-c3ccc(Cl)cc3)nn(C)c2s1 was read as Xi reactivation 0.0, RAD52 inh 50.5*, UUG fidelity 13.8, E-sel inducer 1.9, RAD54 branch 81.8*, DNA binding -12.0% and RAD52 DNA ctr inactive.
CCOCCCNC(=O)c1cc2c(-c3ccc(Cl)cc3)nn(C)c2s1 was read as Xi reactivation 0.0, RAD52 inh -20.9, UUG fidelity -15.8 and RAD54 branch -1.8.
For CCN1CCN(c2ccc(NC(=O)c3cc4ccccc4cc3OC)cc2C)CC1 the results were Xi reactivation 0.4, RAD52 inh 83.4*, UUG fidelity -9.0, E-sel inducer 4.8, RAD54 branch 53.5*, DNA binding -1.8% and RAD52 DNA ctr inactive.
O=C(NCC1CCCCC1)[C@@H]1[C@@H](CO)[C@@H]2Cn3c(ccc(-c4cncnc4)c3=O)[C@H]1N2 was read as Xi reactivation 0.0, RAD52 inh -3.3, E-sel inducer 0.6 and RAD54 branch -1.4.
For COc1cc(C(=O)NC2CCN(C)CC2)ccc1Nc1ncc2c(n1)N(C1CCCCC1)CCC(=O)N2C the results were Xi reactivation 0.6, RAD52 inh 96.9*, UUG fidelity -13.8, E-sel inducer -0.2, RAD54 branch 78.2*, DNA binding 13.1% and RAD52 DNA ctr inactive.
For CCN1C(=O)CC(C(C)C)N(C2CCCC2)c2nc(Nc3ccc(C(=O)NC4CCN(C)CC4)cc3OC)ncc21 (stereo unspecified) the results were UUG fidelity -1.0 and RAD54 branch 12.5.
CN(C)CCCNc1c2ccccc2nc2ccccc12 was read as Xi reactivation 0.8, RAD52 inh 86.7*, UUG fidelity 11.3, RAD54 branch 99.2*, DNA binding 7.56µM* and RAD52 DNA ctr 9.35µM*.
Screening c1ccc(CNc2c3ccccc3nc3ccccc23)cc1 returned Xi reactivation 0.0, RAD52 inh 83.6*, UUG fidelity -15.8, E-sel inducer 0.5, RAD54 branch 83.4*, DNA binding 28.9µM* and RAD52 DNA ctr inconclusive.
Screening Cc1ccc(-c2nc(NCCCN(C)C)c3ccccc3n2)cc1 returned Xi reactivation 0.0, RAD52 inh 83.7*, UUG fidelity -11.2, E-sel inducer -0.2, RAD54 branch 82.8*, DNA binding -17.4% and RAD52 DNA ctr inactive.
C[C@H](CO)N1C[C@H](C)[C@@H](CN(C)Cc2ccc3c(c2)OCO3)OCCCC[C@H](C)Oc2ccc(NC(=O)CCC(F)(F)F)cc2C1=O was read as Xi reactivation 0.1, RAD52 inh 1.1, UUG fidelity 16.8, E-sel inducer 0.0 and RAD54 branch 7.7.
C[C@@H](O)C#Cc1ccc([C@@H]2[C@H]3CN(C(=O)Nc4ccccc4)CCCCN3[C@H]2CO)cc1 was read as Xi reactivation 0.0, RAD52 inh -8.9, UUG fidelity 2.9, E-sel inducer 0.0 and RAD54 branch 3.2.
`CCCNC(=O)Nc1ccc2c(c1)C(=O)N(C)C[C@@H](OC)[C@@H](C)CN(Cc1ccccc1)[C@@H](C)CO2` gave Xi reactivation 0.1 and E-sel inducer 0.3.
`COc1ccc(Nc2nc(NCC3CCCO3)c3ccccc3n2)c(OC)c1` (stereo unspecified) gave Xi reactivation 0.1, RAD52 inh 54.1*, UUG fidelity 4.9, RAD54 branch inconclusive, DNA binding 4.9% and RAD52 DNA ctr inactive.
C[C@H]1CN([C@@H](C)CO)C(=O)Cc2cc(NS(=O)(=O)c3ccc(F)cc3)ccc2O[C@H]1CN(C)S(=O)(=O)c1cn(C)cn1 was read as Xi reactivation -0.4, RAD52 inh 0.8, UUG fidelity 1.3, E-sel inducer 0.0 and RAD54 branch -0.8.
Screening CCN(CC)Cc1cc(Nc2ccnc3cc(Cl)ccc23)ccc1O returned Xi reactivation -0.1, RAD52 inh 87.9*!, UUG fidelity -4.6, E-sel inducer -0.2, RAD54 branch 74.7*!, DNA binding -16.1% and RAD52 DNA ctr inactive.
Screening CCN(CC)CCNc1ccnc2cc(Cl)ccc12 returned RAD52 inh 15.7, UUG fidelity 7.5 and RAD54 branch 39.2.
For CCOC(=O)c1oc2ccccc2c1NC(=O)CN1CCN(C)CC1 the results were RAD52 inh -3.2, UUG fidelity -11.5 and RAD54 branch 9.8.
Cc1ccc(C(=O)c2oc3ccc(Cl)cc3c2NC(=O)CN2CCN(C)CC2)cc1 was read as Xi reactivation 0.0, RAD52 inh 81.9*, UUG fidelity 12.9, E-sel inducer -0.2, RAD54 branch 82.5*, DNA binding 0.6% and RAD52 DNA ctr inactive.
`CCN(CC)CC(O)Cn1c2ccccc2c2ccccc21` (stereo unspecified) gave UUG fidelity -5.4 and RAD54 branch 12.5.
For CCN(CC)CC(O)c1ccc2ccc3ccc(O)cc3c2c1 (stereo unspecified) the results were Xi reactivation 0.1, RAD52 inh 71.6*, UUG fidelity 15.5, E-sel inducer 0.7, RAD54 branch 68.2*, DNA binding -7.5% and RAD52 DNA ctr inactive.

Continued; the last 3 above are carried over.
Cc1ccc(C(=O)c2oc3ccc(Cl)cc3c2NC(=O)CN2CCN(C)CC2)cc1 was read as Xi reactivation 0.0, RAD52 inh 81.9*, UUG fidelity 12.9, E-sel inducer -0.2, RAD54 branch 82.5*, DNA binding 0.6% and RAD52 DNA ctr inactive.
`CCN(CC)CC(O)Cn1c2ccccc2c2ccccc21` (stereo unspecified) gave UUG fidelity -5.4 and RAD54 branch 12.5.
For CCN(CC)CC(O)c1ccc2ccc3ccc(O)cc3c2c1 (stereo unspecified) the results were Xi reactivation 0.1, RAD52 inh 71.6*, UUG fidelity 15.5, E-sel inducer 0.7, RAD54 branch 68.2*, DNA binding -7.5% and RAD52 DNA ctr inactive.
`CN(C)CCCN1C(=O)c2cccc3cccc(c23)C1=O` gave Xi reactivation 0.0, RAD52 inh 58.5*, UUG fidelity -20.6, RAD54 branch 102.1*, DNA binding -18.8% and RAD52 DNA ctr inactive.
For Cn1c(NCCN2CCCC2)nc2cc(-c3ccccc3)sc2c1=O the results were Xi reactivation 0.0, RAD52 inh 52.4*, UUG fidelity 13.0, E-sel inducer -0.2, RAD54 branch inconclusive, DNA binding -19.6% and RAD52 DNA ctr inactive.
Screening COc1cccc(-c2cc3nc(NCCN4CCCC4)n(C)c(=O)c3s2)c1 returned Xi reactivation 0.1, RAD52 inh 89.0*, UUG fidelity -6.1, E-sel inducer -0.1, RAD54 branch 69.8*, DNA binding -14.0% and RAD52 DNA ctr inactive.
For CCOc1ccc(Nc2cc(C)c3ccccc3n2)cc1 the results were Xi reactivation 0.2, RAD52 inh -13.9, UUG fidelity -6.5, E-sel inducer 0.1 and RAD54 branch -4.1.
Screening CCOc1ccc(Nc2c3ccccc3nc3ccccc23)cc1 returned Xi reactivation 0.1, RAD52 inh 85.4*, UUG fidelity -21.8, E-sel inducer 0.0, RAD54 branch 106.3*, DNA binding 26.6µM* and RAD52 DNA ctr inactive.
For COCCCNC(=O)c1cc2c(-c3cccc(OC)c3)nn(C)c2s1 the results were Xi reactivation 0.4, RAD52 inh 17.2, UUG fidelity 1.7, E-sel inducer 0.8 and RAD54 branch 12.4.
